Test results taken from patent US20060270615A1, “Compositions suitable for the treatment of damage caused by ischemia/reper-fusion or oxidative stress” (N.V. NUTRICIA, priority 2000, published 2006).

By UniProt entry, the sequences of proteins in these tests, tags left out.
UniProt P80457, whole entry: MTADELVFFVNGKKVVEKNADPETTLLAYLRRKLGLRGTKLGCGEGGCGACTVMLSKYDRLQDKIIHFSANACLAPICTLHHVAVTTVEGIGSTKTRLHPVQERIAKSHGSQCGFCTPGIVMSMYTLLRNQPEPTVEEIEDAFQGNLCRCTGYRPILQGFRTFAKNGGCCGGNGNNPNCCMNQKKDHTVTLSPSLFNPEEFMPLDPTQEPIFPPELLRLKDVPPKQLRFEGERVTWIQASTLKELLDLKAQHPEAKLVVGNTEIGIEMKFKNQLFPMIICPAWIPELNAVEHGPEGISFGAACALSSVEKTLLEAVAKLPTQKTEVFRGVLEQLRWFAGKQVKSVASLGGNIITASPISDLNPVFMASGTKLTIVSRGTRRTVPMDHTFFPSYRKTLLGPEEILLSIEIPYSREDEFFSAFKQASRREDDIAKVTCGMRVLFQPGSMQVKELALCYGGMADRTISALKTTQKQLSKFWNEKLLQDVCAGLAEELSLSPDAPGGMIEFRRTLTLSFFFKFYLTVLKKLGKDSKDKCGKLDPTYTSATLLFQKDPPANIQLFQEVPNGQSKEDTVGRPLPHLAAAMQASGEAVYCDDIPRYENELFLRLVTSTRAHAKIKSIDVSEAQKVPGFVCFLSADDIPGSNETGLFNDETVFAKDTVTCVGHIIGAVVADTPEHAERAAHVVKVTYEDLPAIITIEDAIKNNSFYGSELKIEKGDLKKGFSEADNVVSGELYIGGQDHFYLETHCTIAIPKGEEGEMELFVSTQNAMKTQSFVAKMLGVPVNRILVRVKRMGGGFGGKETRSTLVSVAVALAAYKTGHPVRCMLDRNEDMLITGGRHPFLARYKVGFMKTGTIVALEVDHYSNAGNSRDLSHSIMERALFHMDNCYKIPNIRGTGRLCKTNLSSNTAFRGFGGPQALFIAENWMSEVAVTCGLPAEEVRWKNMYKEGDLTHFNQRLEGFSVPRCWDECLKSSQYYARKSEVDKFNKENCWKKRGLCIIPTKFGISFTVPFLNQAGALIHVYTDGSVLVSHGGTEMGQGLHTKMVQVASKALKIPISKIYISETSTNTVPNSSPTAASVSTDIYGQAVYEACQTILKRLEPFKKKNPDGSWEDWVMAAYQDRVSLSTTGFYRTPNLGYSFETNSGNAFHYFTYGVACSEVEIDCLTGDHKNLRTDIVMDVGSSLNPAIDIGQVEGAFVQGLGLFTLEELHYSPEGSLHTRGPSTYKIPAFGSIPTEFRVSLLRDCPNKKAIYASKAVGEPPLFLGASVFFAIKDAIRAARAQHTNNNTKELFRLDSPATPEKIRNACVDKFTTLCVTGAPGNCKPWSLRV

Biological target: T1, xanthine oxidase (grade I from buttermilk) (Bos taurus, UniProt P80457)
T1 construct: XOD (xanthine oxidase) (grade I from buttermilk); from tissue; host or cells: buttermilk
Test: Xanthine oxidase inhibition (xanthine oxidase assay), uric acid production
Assay type: biochemical
Details: xanthine substrate, pH 7.8, absorbance at 295 nm
Procedure: Xanthine Oxidase Inhibition (Xanthine Oxidase Assay)
The activity of xanthine oxidase is determined by means of the uric acid production.
This solution is maintained on ice during the entire experiment to prevent changes in the activity of the enzyme.
724 μl phophate buffer pH=7.8
10 μl DMSO or the substance to be tested dissolved in DMSO
The reaction is started by addition of 66 μl of the enzyme solution to the above described assay mixture. […] If the reaction is linear, the result is expressed as Δ absorbance/min. […] The maximum activity is the activity of the enzyme, when no substance is dissolved in DMSO.

In the case of Catechin, the “IC-50 xanthine oxidase inhibition” value is reported as “not detectable”.
